# Laboratory results taken from PubChem BioAssay (NCI).
# Some results for these compounds are left out of this collection, so the calls shown say nothing about other tests.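 Test compounds were applied to cells in 96-well plates for 48 hours at 5 doses. TGI: total growth inhibition.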
# How the values were obtained:
# Test in all cases: inhibition of tumour cell growth, NCI panel, 48 h
# HL-60(TB) leukemia = tested on: HL-60(TB) leukemia
# T-47D breast = tested on: T-47D breast
# SW-620 colon = tested on: SW-620 colon
# NCI-H226 lung = tested on: NCI-H226 lung
# PC-3 prostate = tested on: PC-3 prostate
# LOX IMVI melanoma = tested on: LOX IMVI melanoma
# M14 melanoma = tested on: M14 melanoma
# 786-0 renal = tested on: 786-0 renal
# MCF7 breast = tested on: MCF7 breast
# HT29 colon = tested on: HT29 colon
# HCT-116 colon = tested on: HCT-116 colon
# SK-MEL-28 melanoma = tested on: SK-MEL-28 melanoma
# SF-295 CNS = tested on: SF-295 CNS
# SK-MEL-5 melanoma = tested on: SK-MEL-5 melanoma
# RPMI-8226 leukemia = tested on: RPMI-8226 leukemia
# K-562 leukemia = tested on: K-562 leukemia
# OVCAR-5 ovarian = tested on: OVCAR-5 ovarian
# DU-145 prostate = tested on: DU-145 prostate
# SF-268 CNS = tested on: SF-268 CNS
# A549 NSCLC = tested on: A549 NSCLC
# SR leukemia = tested on: SR leukemia
# CAKI-1 renal = tested on: CAKI-1 renal
# UACC-62 melanoma = tested on: UACC-62 melanoma
# SNB-19 CNS = tested on: SNB-19 CNS
# CCRF-CEM leukemia = tested on: CCRF-CEM leukemia
# MDA-MB-231 breast = tested on: MDA-MB-231 breast
# NCI-H23 lung = tested on: NCI-H23 lung
# UO-31 renal = tested on: UO-31 renal
# IGROV1 ovarian = tested on: IGROV1 ovarian
# ACHN renal = tested on: ACHN renal
# KM12 colon = tested on: KM12 colon
# OVCAR-3 ovarian = tested on: OVCAR-3 ovarian
# EKVX NSCLC = tested on: EKVX NSCLC
# HCT-15 colon = tested on: HCT-15 colon
# RXF 393 renal = tested on: RXF 393 renal
# OVCAR-8 ovarian = tested on: OVCAR-8 ovarian
# SNB-75 CNS = tested on: SNB-75 CNS
# MDA-N = tested on: MDA-N
# HOP-62 NSCLC = tested on: HOP-62 NSCLC
# SN12C renal = tested on: SN12C renal
# HCC-2998 colon = tested on: HCC-2998 colon
# NCI-H522 lung = tested on: NCI-H522 lung
# MALME-3M melanoma = tested on: MALME-3M melanoma
# TK-10 renal = tested on: TK-10 renal
# COLO 205 colon = tested on: COLO 205 colon
# SF-539 CNS = tested on: SF-539 CNS
# MOLT-4 leukemia = tested on: MOLT-4 leukemia
# SK-OV-3 ovarian = tested on: SK-OV-3 ovarian
# U251 CNS = tested on: U251 CNS
# UACC-257 melanoma = tested on: UACC-257 melanoma
# NCI/ADR-RES ovarian = tested on: NCI/ADR-RES ovarian
smiles,measurement,setting,value
C=C(C)C#CC(O)(C(=O)OC1CCN(C)CC1)c1cccs1 (stereo unspecified),TGI,HL-60(TB) leukemia,> 100 µM
same,TGI,T-47D breast,> 100 µM
same,TGI,SW-620 colon,> 100 µM
same,TGI,NCI-H226 lung,> 100 µM
same,TGI,PC-3 prostate,> 100 µM
same,TGI,LOX IMVI melanoma,> 100 µM
same,TGI,M14 melanoma,> 100 µM
same,TGI,786-0 renal,> 100 µM
same,TGI,MCF7 breast,> 100 µM
same,TGI,HT29 colon,> 100 µM
same,TGI,HCT-116 colon,> 100 µM
same,TGI,SK-MEL-28 melanoma,> 100 µM
same,TGI,SF-295 CNS,> 100 µM
same,TGI,SK-MEL-5 melanoma,> 100 µM
same,TGI,RPMI-8226 leukemia,> 100 µM
same,TGI,K-562 leukemia,> 100 µM
same,TGI,OVCAR-5 ovarian,> 100 µM
same,TGI,DU-145 prostate,> 100 µM
same,TGI,SF-268 CNS,> 100 µM
same,TGI,A549 NSCLC,> 100 µM
same,TGI,SR leukemia,> 100 µM
same,TGI,CAKI-1 renal,> 100 µM
same,TGI,UACC-62 melanoma,> 100 µM
same,TGI,SNB-19 CNS,> 100 µM
same,TGI,CCRF-CEM leukemia,> 100 µM
same,TGI,MDA-MB-231 breast,> 100 µM
same,TGI,NCI-H23 lung,> 100 µM
same,TGI,UO-31 renal,> 100 µM
same,TGI,IGROV1 ovarian,> 100 µM
same,TGI,ACHN renal,> 100 µM
same,TGI,KM12 colon,> 100 µM
same,TGI,OVCAR-3 ovarian,> 100 µM
same,TGI,EKVX NSCLC,> 100 µM
same,TGI,HCT-15 colon,> 100 µM
same,TGI,RXF 393 renal,> 100 µM
same,TGI,OVCAR-8 ovarian,> 100 µM
same,TGI,SNB-75 CNS,> 100 µM
same,TGI,MDA-N,> 100 µM
same,TGI,HOP-62 NSCLC,> 100 µM
same,TGI,SN12C renal,> 100 µM
same,TGI,HCC-2998 colon,> 100 µM
same,TGI,NCI-H522 lung,> 100 µM
same,TGI,MALME-3M melanoma,> 100 µM
same,TGI,TK-10 renal,> 100 µM
same,TGI,COLO 205 colon,> 100 µM
same,TGI,SF-539 CNS,> 100 µM
same,TGI,MOLT-4 leukemia,> 100 µM
same,TGI,SK-OV-3 ovarian,> 100 µM
same,TGI,U251 CNS,> 100 µM
same,TGI,UACC-257 melanoma,> 100 µM
CC(C)C(O)(C(=O)O/C=C1\CC2CCN1CC2)c1ccccc1 (stereo unspecified),TGI,HL-60(TB) leukemia,> 100 µM
same,TGI,T-47D breast,> 100 µM
same,TGI,SW-620 colon,> 100 µM
same,TGI,NCI-H226 lung,> 100 µM
same,TGI,PC-3 prostate,> 100 µM
same,TGI,LOX IMVI melanoma,> 100 µM
same,TGI,M14 melanoma,> 100 µM
same,TGI,786-0 renal,> 100 µM
same,TGI,MCF7 breast,> 100 µM
same,TGI,HT29 colon,> 100 µM
same,TGI,HCT-116 colon,> 100 µM
same,TGI,SK-MEL-28 melanoma,> 100 µM
same,TGI,SF-295 CNS,> 100 µM
same,TGI,SK-MEL-5 melanoma,> 100 µM
same,TGI,RPMI-8226 leukemia,> 100 µM
same,TGI,K-562 leukemia,> 100 µM
same,TGI,NCI/ADR-RES ovarian,45.8 µM
same,TGI,OVCAR-5 ovarian,> 100 µM
same,TGI,DU-145 prostate,> 100 µM
same,TGI,SF-268 CNS,> 100 µM
same,TGI,A549 NSCLC,> 100 µM
same,TGI,SR leukemia,> 100 µM
same,TGI,CAKI-1 renal,> 100 µM
same,TGI,UACC-62 melanoma,> 100 µM
same,TGI,SNB-19 CNS,> 100 µM
same,TGI,CCRF-CEM leukemia,> 100 µM
same,TGI,MDA-MB-231 breast,> 100 µM
same,TGI,NCI-H23 lung,> 100 µM
same,TGI,UO-31 renal,> 100 µM
same,TGI,IGROV1 ovarian,> 100 µM
same,TGI,ACHN renal,> 100 µM
same,TGI,KM12 colon,> 100 µM
same,TGI,OVCAR-3 ovarian,> 100 µM
same,TGI,EKVX NSCLC,> 100 µM
same,TGI,HCT-15 colon,> 100 µM
same,TGI,RXF 393 renal,> 100 µM
same,TGI,OVCAR-8 ovarian,> 100 µM
same,TGI,SNB-75 CNS,> 100 µM
same,TGI,MDA-N,> 100 µM
same,TGI,HOP-62 NSCLC,> 100 µM
same,TGI,SN12C renal,> 100 µM
same,TGI,HCC-2998 colon,> 100 µM
same,TGI,NCI-H522 lung,> 100 µM
same,TGI,MALME-3M melanoma,> 100 µM
same,TGI,TK-10 renal,> 100 µM
same,TGI,COLO 205 colon,> 100 µM
same,TGI,SF-539 CNS,> 100 µM
same,TGI,MOLT-4 leukemia,> 100 µM
same,TGI,SK-OV-3 ovarian,> 100 µM
same,TGI,U251 CNS,> 100 µM
same,TGI,UACC-257 melanoma,> 100 µM
